Assay results taken from paper PMC7902086 (Toxicology letters, 2019).
pIC50: −log10 of the molar value.

The chains behind the UniProt entries cited, without tags or fusion partners.
UniProt P10635, whole entry: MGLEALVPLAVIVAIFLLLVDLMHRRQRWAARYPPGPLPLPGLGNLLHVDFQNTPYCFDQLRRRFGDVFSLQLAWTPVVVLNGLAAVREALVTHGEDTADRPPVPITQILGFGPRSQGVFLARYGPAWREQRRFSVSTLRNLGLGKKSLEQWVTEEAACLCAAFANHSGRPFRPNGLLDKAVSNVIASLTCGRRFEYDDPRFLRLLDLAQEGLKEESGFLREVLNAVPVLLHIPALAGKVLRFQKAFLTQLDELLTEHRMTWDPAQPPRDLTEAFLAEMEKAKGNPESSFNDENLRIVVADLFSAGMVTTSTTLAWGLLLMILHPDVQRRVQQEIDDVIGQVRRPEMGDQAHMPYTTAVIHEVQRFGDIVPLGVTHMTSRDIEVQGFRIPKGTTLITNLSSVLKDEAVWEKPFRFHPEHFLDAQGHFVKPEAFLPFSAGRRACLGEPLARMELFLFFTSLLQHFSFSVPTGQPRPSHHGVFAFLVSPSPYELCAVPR
UniProt P33261, whole entry: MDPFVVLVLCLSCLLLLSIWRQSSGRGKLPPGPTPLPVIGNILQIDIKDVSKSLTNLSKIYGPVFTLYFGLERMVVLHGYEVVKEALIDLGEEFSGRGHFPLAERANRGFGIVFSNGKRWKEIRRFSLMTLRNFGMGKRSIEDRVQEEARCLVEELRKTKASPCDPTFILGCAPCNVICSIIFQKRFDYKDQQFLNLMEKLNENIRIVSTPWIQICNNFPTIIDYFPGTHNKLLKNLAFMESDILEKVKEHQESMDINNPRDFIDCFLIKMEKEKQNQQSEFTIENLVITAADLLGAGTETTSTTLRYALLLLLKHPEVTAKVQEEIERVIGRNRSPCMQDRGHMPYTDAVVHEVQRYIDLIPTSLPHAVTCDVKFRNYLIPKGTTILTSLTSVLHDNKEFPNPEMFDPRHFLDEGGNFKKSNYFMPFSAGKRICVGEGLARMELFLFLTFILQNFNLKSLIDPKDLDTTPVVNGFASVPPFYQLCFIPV

What was measured:
[1] = molecular target: T1, CYP2D6 (Homo sapiens, UniProt P10635); test: Determination of enzyme inhibition constant; format: in vitro ADME; conditions: HLM, dextromethorphan; best fit by AIC, Eadie-Hofstee plot
[2] = test system: CYP3A4/5; test: CYP450 inhibition assay, midazolam 1′-hydroxylase in human liver microsomes; conditions: read-out: IC50, CYP3A4/5 Midazolam 1′-hydroxylase; human liver microsomes 0.1 mg/mL; mean of triplicate
[3] = test system: CYP3A4/5; test: CYP450 inhibition assay, testosterone 6β-hydroxylase in human liver microsomes; conditions: read-out: IC50, CYP3A4/5 Testosterone 6β-hydroxylase; human liver microsomes 0.1 mg/mL; mean of triplicate
[4] = molecular target: CYP2C19 (Homo sapiens, UniProt P33261); test: CYP450 inhibition assay, S-mephenytoin 4′-hydroxylase in human liver microsomes; conditions: read-out: IC50, CYP2C19 S-Mephenytoin 4′-hydroxylase; human liver microsomes 0.1 mg/mL; mean of triplicate
[5] = molecular target: T1, CYP2D6; test: Prediction of drug-drug interaction
[6] = MTG High (12.05 μM), Desipramine
[7] = MTG High (12.05 μM), Dextromethorphan
[8] = MTG High (12.05 μM), Metoprolol
[9] = MTG Low (0.041 μM), Desipramine
[10] = MTG Low (0.041 μM), Dextromethorphan

corynantheidine was tested, and the “type of inhibition of CYP2D6 activity” value [1] was “competitive type of reversible inhibition”, the pIC50 [2] was 5.14 and the pIC50 [3] was less than 4.35. It also gave a pIC50 [4] of less than 4.35.

For mitragynine [MTG], the “type of inhibition of CYP2D6 activity” value [1] was “competitive type of reversible inhibition”, the “Fold increase in exposure (AUCinhibited/AUCcontrol), Cmax total” value [5, 6] was 5.70 and the “Fold increase in exposure (AUCinhibited/AUCcontrol), fu x Cmax” value [5, 6] was 1.19. For the same substance, the “Fold increase in exposure (AUCinhibited/AUCcontrol), Cmax total” value [5, 7] was 11.95, the “Fold increase in exposure (AUCinhibited/AUCcontrol), fu x Cmax” value [5, 7] was 1.22 and the “Fold increase in exposure (AUCinhibited/AUCcontrol), Cmax total” value [5, 8] was 3.75. The “Fold increase in exposure (AUCinhibited/AUCcontrol), fu x Cmax” value [5, 8] was 1.17, the “Fold increase in exposure (AUCinhibited/AUCcontrol), Cmax total” value [5, 9] was 1.03 and the “Fold increase in exposure (AUCinhibited/AUCcontrol), fu x Cmax” value [5, 9] was 1.00. For the same substance, the “Fold increase in exposure (AUCinhibited/AUCcontrol), Cmax total” value [5, 10] was 1.04, the “Fold increase in exposure (AUCinhibited/AUCcontrol), fu x Cmax” value [5, 10] was 1.00 and the “Fold increase in exposure (AUCinhibited/AUCcontrol), Cmax total” value ([5]; MTG Low (0.041 μM), Metoprolol) was 1.03. The “Fold increase in exposure (AUCinhibited/AUCcontrol), fu x Cmax” value ([5]; MTG Low (0.041 μM), Metoprolol) was 1.00, the pIC50 [2] was 4.94 and the pIC50 [3] was less than 4.35. For the same substance, the pIC50 [4] was 4.98.
